## Cyclic peptide permeability, from CycPeptMPDB

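The data file gives no further conditions (lipid, pH, time, direction or concentration), and values from different papers need not be comparable. Other peptides of the study may be missing here. Peptides that the database sets to -10, its floor, are left out.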

PAMPA measures passive passage through an artificial lipid membrane.
P is given in units of 10^-6 cm/s (from log10 values with two decimals); larger means faster passage.

- CC(C)C[C@@H]1C(=O)N2CCC[C@H]2C(=O)N(Cc2ccccc2)CC(=O)N[C@@H](Cc2ccccc2)C(=O)N[C@@H](Cc2ccccc2)CC(=O)N(C)[C@@H](CC(C)C)C(=O)N1C: PAMPA 3 × 10^-6 cm/s
- CCCN1CC(=O)N(Cc2ccccc2)CC(=O)N(Cc2ccccc2)CC(=O)N2CCC[C@@H]2C(=O)N[C@H](CC(C)C)C(=O)N[C@@H](Cc2ccccc2)C(=O)N2CCC[C@@H]2C1=O: PAMPA 1.1 × 10^-6 cm/s
- CC(C)C[C@@H]1C(=O)N[C@@H](Cc2ccccc2)C(=O)N2CCC[C@@H]2C(=O)N[C@@H](C)C(=O)N(Cc2ccccc2)CC(=O)N(Cc2ccccc2)CC(=O)N2CCC[C@H]2C(=O)N1C: PAMPA 0.5 × 10^-6 cm/s
- CCCN1CC(=O)N[C@@H](CC(C)C)C(=O)N[C@@H](Cc2ccccc2)CC(=O)N2CCC[C@@H]2C(=O)N[C@H](CC(C)C)C(=O)N[C@@H](Cc2ccccc2)C1=O: PAMPA 0.81 × 10^-6 cm/s
- CC(C)C[C@@H]1NC(=O)[C@@H](C)NC(=O)[C@H](Cc2ccccc2)NC(=O)CN(Cc2ccccc2)C(=O)[C@@H]2CCCN2C(=O)C[C@H](Cc2ccccc2)NC1=O: PAMPA 1.1 × 10^-6 cm/s
- CC(C)C[C@H]1NC(=O)[C@H]2CCCN2C(=O)[C@@H](CC(C)C)NC(=O)CN(Cc2ccccc2)C(=O)[C@H](C)N(C)C(=O)[C@H]2CCCN2C(=O)[C@H](Cc2ccccc2)NC1=O: PAMPA 1.4 × 10^-6 cm/s
- CCCN1CC(=O)N(Cc2ccccc2)CC(=O)N[C@H](CC(C)C)C(=O)N2CCC[C@@H]2C(=O)N[C@H](CC(C)C)C(=O)N[C@@H](Cc2ccccc2)C1=O: PAMPA 1.4 × 10^-6 cm/s
- CCCN1CC(=O)N(Cc2ccccc2)CC(=O)N[C@@H](Cc2ccccc2)CC(=O)N2CCC[C@@H]2C(=O)N[C@H](CC(C)C)C(=O)N[C@@H](Cc2ccccc2)C(=O)N2CCC[C@H]2C1=O: PAMPA 0.36 × 10^-6 cm/s
- CCCN1CC(=O)N[C@H](CC(C)C)C(=O)N[C@@H](Cc2ccccc2)CC(=O)N2CCC[C@@H]2C(=O)N(Cc2ccccc2)CC(=O)N[C@@H](Cc2ccccc2)C1=O: PAMPA 6.5 × 10^-6 cm/s
- CCCN1CC(=O)N(Cc2ccccc2)CC(=O)N[C@@H](Cc2ccccc2)CC(=O)N2CCC[C@H]2C(=O)N(C)[C@H](CC(C)C)C(=O)N[C@@H](Cc2ccccc2)C(=O)N2CCC[C@H]2C1=O: PAMPA 1.1 × 10^-6 cm/s
- CC(C)C[C@H]1C(=O)N(Cc2ccccc2)CC(=O)N2CCC[C@H]2C(=O)N(Cc2ccccc2)CC(=O)N[C@@H](Cc2ccccc2)C(=O)N2CCC[C@H]2C(=O)N[C@@H](C)C(=O)N1C: PAMPA 0.32 × 10^-6 cm/s
- CC(C)C[C@@H]1C(=O)N2CCC[C@H]2C(=O)N(C)[C@H](CC(C)C)C(=O)N[C@@H](Cc2ccccc2)C(=O)N(C)[C@H](C)C(=O)N(Cc2ccccc2)CC(=O)N1C: PAMPA 11 × 10^-6 cm/s
- CC(C)C[C@H]1C(=O)N[C@@H](Cc2ccccc2)CC(=O)N2CCC[C@@H]2C(=O)N(Cc2ccccc2)CC(=O)N[C@@H](Cc2ccccc2)C(=O)N[C@@H](C)C(=O)N1C: PAMPA 1 × 10^-6 cm/s
- CCCN1CC(=O)N(Cc2ccccc2)CC(=O)N[C@@H](CC(C)C)C(=O)N2CCC[C@@H]2C(=O)N(Cc2ccccc2)CC(=O)N[C@@H](Cc2ccccc2)C(=O)N2CCC[C@@H]2C1=O: PAMPA 2.6 × 10^-6 cm/s
- CC(C)C[C@H]1NC(=O)[C@H]2CCCN2C(=O)C[C@H](Cc2ccccc2)NC(=O)CN(Cc2ccccc2)C(=O)[C@@H](C)N(C)C(=O)[C@H](Cc2ccccc2)NC1=O: PAMPA 1 × 10^-6 cm/s
- CC(C)C[C@H]1C(=O)N[C@@H](Cc2ccccc2)CC(=O)N2CCC[C@H]2C(=O)N(Cc2ccccc2)CC(=O)N[C@@H](Cc2ccccc2)C(=O)N(C)[C@H](C)C(=O)N1C: PAMPA 4.4 × 10^-6 cm/s
- CC(C)C[C@H]1NC(=O)[C@H]2CCCN2C(=O)CN(Cc2ccccc2)C(=O)CN(Cc2ccccc2)C(=O)[C@@H](C)NC(=O)[C@H]2CCCN2C(=O)[C@H](Cc2ccccc2)NC1=O: PAMPA 0.48 × 10^-6 cm/s

Values of Townsend et al. 2020, doi:10.26434/chemrxiv.13335941.v1, as listed in CycPeptMPDB.